This assay deals with Recombinant mouse VDAC1 (voltage-dependent anion channel) (mouse) (UniProt Q60932). The experiment in a line: single-channel current recording (planar lipid bilayer, nanopore blockage); VDAC single channel reconstituted in pure DOPE (PE) planar membrane; 10 nM α-syn in solution; 1 M KCl, 5 mM HEPES pH 7.4; -35 mV.

For “α-synuclein (WT) (from UniProt P37840 1-140) (natural protein)”, the fold difference of kon, PE membrane against PC membrane came out at 10 fold.

The values above are taken from paper PMC6418135.
